Values of other authors in patent US20080207643A1, “Composition for Treating Hyperlipaemia” (priority 2004, published 2008).

Target: T1, HMG-CoA reducase (Homo sapiens, UniProt P04035)
T1 sequence (P04035 1-888): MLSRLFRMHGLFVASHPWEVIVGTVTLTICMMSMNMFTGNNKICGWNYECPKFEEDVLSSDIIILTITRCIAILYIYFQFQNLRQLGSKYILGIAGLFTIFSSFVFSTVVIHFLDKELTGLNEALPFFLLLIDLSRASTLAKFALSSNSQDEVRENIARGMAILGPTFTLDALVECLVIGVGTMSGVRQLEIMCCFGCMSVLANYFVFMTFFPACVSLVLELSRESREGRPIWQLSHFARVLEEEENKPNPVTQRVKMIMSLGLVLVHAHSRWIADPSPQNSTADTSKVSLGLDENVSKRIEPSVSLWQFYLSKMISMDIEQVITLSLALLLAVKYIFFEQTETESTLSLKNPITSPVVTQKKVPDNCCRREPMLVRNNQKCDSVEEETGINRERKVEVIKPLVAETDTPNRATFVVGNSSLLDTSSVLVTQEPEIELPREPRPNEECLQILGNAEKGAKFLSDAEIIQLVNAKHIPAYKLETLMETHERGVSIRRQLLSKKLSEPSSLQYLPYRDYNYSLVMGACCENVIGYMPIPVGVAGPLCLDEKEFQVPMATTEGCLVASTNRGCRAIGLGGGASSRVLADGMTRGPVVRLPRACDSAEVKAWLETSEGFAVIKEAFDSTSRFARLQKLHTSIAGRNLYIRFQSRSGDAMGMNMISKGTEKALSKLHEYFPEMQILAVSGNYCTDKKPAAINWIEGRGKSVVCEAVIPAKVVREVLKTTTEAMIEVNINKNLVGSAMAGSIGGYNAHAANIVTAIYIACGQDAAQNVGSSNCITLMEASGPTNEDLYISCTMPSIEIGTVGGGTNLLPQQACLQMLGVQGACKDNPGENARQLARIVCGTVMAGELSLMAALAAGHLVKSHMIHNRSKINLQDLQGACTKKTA
Conditions: read-out: 50% Inhibition concentration (IC50) on HMG-CoA reducase; cited from earlier work

Compound	IC50 [nM]
CC(C)c1c(C(=O)Nc2ccccc2)c(-c2ccccc2)c(-c2ccc(F)cc2)n1CC[C@@H](O)C[C@@H](O)CC(=O)O [Atorvastatin calcium, calcium [R-(R′,R′)]2-(4-fluorophenyl)-βδ-dihydroxyl-5-(1-methylethyl)-3-phenyl-4-[aniline]carbonyl]-1-hydro-pyrrolyl-1-heptanoate trihydrate]	73
CC[C@H](C)C(=O)O[C@H]1C[C@H](O)C=C2C=C[C@H](C)[C@H](CC[C@@H](O)C[C@@H](O)CC(=O)O)[C@H]21 [pravastatin]	2650
